Test [1] has as its system EGFR activation (granule formation) in A549-EGFRB cells. The experiment in a line: EGFRB assay, granule count readout. The test is classed as cell-based.
Test [2] relates to A549 cells (wild type EGFR). Nature of the test: Alamar Blue viability assay, A549. The test is classed as cell-based. (In general: Resazurin is reduced to fluorescent resorufin, in cell work by metabolically active cells.)

Regarding `COc1cc2ncnc(Nc3ccc(F)c(Cl)c3)c2cc1OCCCN1CCOCC1` [Gefitinib, gefitinib], the Average granule count in test [1] came out at 507. In test [2], the “Alamar Blue viability assay IC50 A549” value was “inactive”.
